# Values of other authors, collected in publication PMC6642186, “Molecular mechanism of setron-mediated inhibition of full-length 5-HT3A receptor” (Nature Communications, 2019).
# System: human 5-HT3AR with mutations at the Arg65 position
# Set-up: method as in PMID 28137449
# Conditions: cited from earlier work
compound,measurement,value
CN1C2CCCC1CC(NC(=O)c1nn(C)c3ccccc13)C2 (stereo not shown) [granisetron],effect of mutations at the Arg65 position on binding,abolish granisetron binding
